The numbers were not newly measured in PubChem BioAssay AID977611 (Shanghai Institute of Organic Chemistry, 2014), which cites them from elsewhere.

Test in all cases: PubChem AID 977611
Series [1] addresses Rice GID1. The conditions noted are these: PDB protein-ligand complexes, literature Kd; protein: Rice GID1; PDB entry 3EBL.
The target in series [2] is sialic acid binding protein hi0146. The following applies: PDB protein-ligand complexes, literature Kd; protein: sialic acid binding protein hi0146; PDB entry 2CEX.
Series [3] concerns the target glutathione s-transferase 28 kda. The following applies: PDB protein-ligand complexes, literature Kd; protein: glutathione s-transferase 28 kda; PDB entry 2CA8.
Series [4] deals with tubulin alpha chain. The following applies: PDB protein-ligand complexes, literature Kd; protein: tubulin alpha chain; PDB entry 1Z2B.
Series [5] deals with CATIONIC TRYPSIN(residue 21-243). The following applies: PDB protein-ligand complexes, literature Kd; protein: CATIONIC TRYPSIN(residue 21-243); PDB entry 2J9N.
Series [6] concerns the target beta-glucosidase a. The conditions noted are these: PDB protein-ligand complexes, literature Kd; protein: beta-glucosidase a; PDB entry 2CBU.

Consider `C=C1C[C@]23C[C@H]1CC[C@H]2[C@@]12CC[C@H](O)[C@@](C)(C(=O)O1)[C@H]2[C@@H]3C(=O)O`, for which the Kd in series [1] was 0.5 µM.
For the compound `CC(=O)N[C@H]1[C@H]([C@H](O)[C@H](O)CO)OC(C(=O)O)=C[C@@H]1O`, in series [2], the Kd is 20 µM.
Regarding `N[C@H](CCC(=O)N[C@@H](CS)C(=O)NCC(=O)O)C(=O)O`, the Kd in series [3] was 22 µM.
For `CC[C@]1(O)C[C@@H]2CN(CCc3c([nH]c4ccccc34)[C@@](C(=O)OC)(c3cc4c(cc3OC)N(C)[C@H]3[C@@](O)(C(=O)OC)[C@H](OC(C)=O)[C@]5(CC)C=CCN6CC[C@]43[C@@H]65)C2)C1`, in series [4], the Kd is 0.4 µM.
For the compound `N=C(N)c1ccccc1`, in series [5], the Kd is 20 µM.
For the compound `O[C@H]1[C@H](O)[C@@H](O)CN2CC[C@H](O)[C@H]12`, the Kd in series [6] was 2.1 µM.

In general, Kd refers to a measure of binding affinity in units of concentration.
